Assay results published in PMC12831531 (2025).

Molecular target: IgG1 Fc Fc (Homo sapiens, UniProt P01857 = IgG part)
Assay: SPR

B1: gp34-M (protein)
chain: SSSNAVEPTKKPLKLANYRATCEDRTRTLVTRLNTSHHSVVWQRYDIYSRYMRRMPPLCIITDAYKETTHQGGATFTCTRQNLTLYNLTVKDTGVYLLQDQYTGDVEAFYLIIHPRSFCRALETRRCFYPGPGRVVVTDSQEADRAIISDLKRQWSGLSLHCAWVSGLMIFVGALVICFLRSQRIGEQDAEQLRTDLDTEPLLLTVDGDLE
  Kd: 7.3 nM
